Laboratory results as given in ChEMBL document CHEMBL1148829, “Cinnamoyl derivatives of 7alpha-aminomethyl-6,14-endo-ethanotetrahydrothebaine and 7alpha-aminomethyl-6,14-endo-ethanotetrahydrooripavine and related opioid ligands” (2007).

Protein sequences, listed by entry. Tags and fused reporters are not part of them. Lines headed by an entry give the natural chain unless they say otherwise; changes in a name come on top.
UniProt P41143, whole entry: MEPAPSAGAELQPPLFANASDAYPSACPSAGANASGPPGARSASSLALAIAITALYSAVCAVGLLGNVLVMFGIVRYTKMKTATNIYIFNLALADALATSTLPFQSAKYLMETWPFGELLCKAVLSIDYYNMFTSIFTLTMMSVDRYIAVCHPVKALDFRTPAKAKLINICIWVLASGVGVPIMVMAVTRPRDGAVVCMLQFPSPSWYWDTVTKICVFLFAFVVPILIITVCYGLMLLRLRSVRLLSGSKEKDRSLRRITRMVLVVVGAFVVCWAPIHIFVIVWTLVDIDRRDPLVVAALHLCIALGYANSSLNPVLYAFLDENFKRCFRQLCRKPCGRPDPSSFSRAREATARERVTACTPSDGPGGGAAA
UniProt P41145, whole entry: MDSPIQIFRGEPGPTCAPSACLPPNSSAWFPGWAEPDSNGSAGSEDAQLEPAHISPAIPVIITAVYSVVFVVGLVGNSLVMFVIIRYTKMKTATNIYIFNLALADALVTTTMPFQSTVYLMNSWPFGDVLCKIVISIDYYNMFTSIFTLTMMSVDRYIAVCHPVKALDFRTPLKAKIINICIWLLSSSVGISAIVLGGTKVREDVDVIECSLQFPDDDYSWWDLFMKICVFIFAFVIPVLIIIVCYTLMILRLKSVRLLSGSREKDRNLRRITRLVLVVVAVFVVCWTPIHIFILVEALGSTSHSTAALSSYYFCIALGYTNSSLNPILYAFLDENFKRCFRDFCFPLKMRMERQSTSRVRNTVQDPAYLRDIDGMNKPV
UniProt P35372, whole entry: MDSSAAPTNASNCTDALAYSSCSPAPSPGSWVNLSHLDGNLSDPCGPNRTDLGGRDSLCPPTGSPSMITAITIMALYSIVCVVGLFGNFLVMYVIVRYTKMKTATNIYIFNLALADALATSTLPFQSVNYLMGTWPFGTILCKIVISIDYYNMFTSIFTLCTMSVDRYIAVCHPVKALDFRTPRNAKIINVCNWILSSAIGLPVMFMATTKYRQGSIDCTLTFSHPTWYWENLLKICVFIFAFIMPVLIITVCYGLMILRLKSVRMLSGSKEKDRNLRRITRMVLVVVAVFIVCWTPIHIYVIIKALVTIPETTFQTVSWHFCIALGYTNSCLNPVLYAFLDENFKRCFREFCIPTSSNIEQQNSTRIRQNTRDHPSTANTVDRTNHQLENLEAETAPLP

Key:
[1] = molecular target: Delta-type opioid receptor (Homo sapiens) (UniProt P41143); assay: Agonist activity at human delta opioid receptor expressed in CHO cells assessed as stimulation of [35S]GTPgammaS binding relative to DPDPE
[2] = molecular target: Kappa-type opioid receptor (Homo sapiens) (UniProt P41145); assay: Agonist activity at human kappa opioid receptor expressed in CHO cells assessed as stimulation of [35S]GTPgammaS binding relative to U69593
[3] = molecular target: Opioid receptors; mu & delta (Homo sapiens) (UniProt P41143+P35372); assay: Selectivity for human mu opioid receptor over human delta opiod receptor
[4] = molecular target: Opioid receptors; mu & kappa (Homo sapiens) (UniProt P41145+P35372); assay: Selectivity for human mu opioid receptor over human kappa opiod receptor
[5] = molecular target: Mu-type opioid receptor (Homo sapiens) (UniProt P35372); assay: Agonist activity at human mu opioid receptor expressed in CHO cells assessed as stimulation of [35S]GTP-gamma-S binding relative to DAMGO
[6] = molecular target: Mu-type opioid receptor (Homo sapiens) (UniProt P35372); assay: Antagonist activity at human mu opioid receptor expressed in CHO cells assessed as effect on [35S]GTP-gamma-S binding
[7] = molecular target: Kappa-type opioid receptor (Homo sapiens) (UniProt P41145); assay: Antagonist activity at human kappa opioid receptor expressed in CHO cells assessed as effect on 35S]GTPgammaS binding

SMILES	Activity [1] [%]	Activity [2] [%]	Activity [5] [%]	further results
COc1ccc2c3c1O[C@H]1[C@]4(OC)CC[C@@]5(C[C@@H]4CNC(=O)/C=C/c4ccccc4C)[C@@H](C2)N(C)CC[C@]315	87	80		
CO[C@@]12CC[C@@]3(C[C@@H]1CNC/C=C/c1ccc(Cl)cc1)[C@H]1Cc4ccc(O)c5c4[C@@]3(CCN1C)[C@H]2O5	39	24		
COc1ccc2c3c1O[C@H]1[C@]4(OC)CC[C@@]5(C[C@@H]4CNC(=O)/C=C/c4ccc([N+](=O)[O-])cc4)[C@@H](C2)N(C)CC[C@]315	90	22	24	Ratio Ki [3]: 153; Ratio Ki [4]: 67
CO[C@@]12CC[C@@]3(C[C@@H]1CNC(=O)/C=C/c1ccc(Cl)cc1)[C@H]1Cc4ccc(O)c5c4[C@@]3(CCN1C)[C@H]2O5	63	36	25	
COc1ccc(/C=C/C(=O)NC[C@H]2C[C@@]34CC[C@@]2(OC)[C@@H]2Oc5c(OC)ccc6c5[C@@]23CCN(C)[C@@H]4C6)cc1		52	27	
CO[C@@]12CC[C@@]3(C[C@@H]1CNC(=O)/C=C/c1ccc([N+](=O)[O-])cc1)[C@H]1Cc4ccc(O)c5c4[C@@]3(CCN1C)[C@H]2O5	84	43	32	
CO[C@@]12CC[C@@]3(C[C@@H]1CNC(=O)/C=C/c1ccccc1)[C@H]1Cc4ccc(O)c5c4[C@@]3(CCN1C)[C@H]2O5	36	26		
COc1ccc2c3c1O[C@H]1[C@]4(OC)CC[C@@]5(C[C@@H]4CNC(=O)/C=C/c4ccccc4Cl)[C@@H](C2)N(C)CC[C@]315	77	84		
COc1ccc2c3c1O[C@H]1[C@]4(OC)CC[C@@]5(C[C@@H]4CNC(=O)/C=C/c4ccc(Cl)cc4)[C@@H](C2)N(C)CC[C@]315				Ke [6]: 32.3 nM; Ke [7]: 196 nM
COc1ccc2c3c1O[C@H]1[C@]4(OC)CC[C@@]5(C[C@@H]4CNC(=O)/C=C/c4ccc(C)cc4)[C@@H](C2)N(C)CC[C@]315		27		Ke [6]: 47.4 nM
COc1ccc2c3c1O[C@H]1[C@]4(OC)CC[C@@]5(C[C@@H]4CNC(=O)/C=C/c4ccccc4)[C@@H](C2)N(C)CC[C@]315	74	51	34	
CO[C@@]12C=C[C@@]3([C@@H]4CN(C(=O)/C=C/c5ccccc5C)C[C@@H]41)[C@H]1Cc4ccc(O)c5c4[C@@]3(CCN1C)[C@H]2O5	54	88		
CO[C@@]12CC[C@@]3(C[C@@H]1CNC(=O)/C=C/c1ccccc1C)[C@H]1Cc4ccc(O)c5c4[C@@]3(CCN1C)[C@H]2O5	63			Ke [7]: 4.02 nM
CO[C@@]12CC[C@@]3(C[C@@H]1CNC/C=C/c1ccccc1)[C@H]1Cc4ccc(O)c5c4[C@@]3(CCN1C)[C@H]2O5	33	88		
COc1ccc2c3c1O[C@H]1[C@]4(OC)CC[C@@]5(C[C@@H]4CNC/C=C/c4ccc(Cl)cc4)[C@@H](C2)N(C)CC[C@]315		75	34	
CO[C@@]12CC[C@@]3(C[C@@H]1CNC(=O)/C=C/c1ccc(C)cc1)[C@H]1Cc4ccc(O)c5c4[C@@]3(CCN1C)[C@H]2O5	51	43		Ke [6]: 0.33 nM
COc1ccc2c3c1O[C@H]1[C@]4(OC)CC[C@@]5(C[C@@H]4CNC(=O)/C=C/c4ccccc4[N+](=O)[O-])[C@@H](C2)N(C)CC[C@]315	58	23		
COc1ccc2c3c1O[C@H]1[C@]4(OC)CC[C@@]5(C[C@@H]4CNC/C=C/c4ccccc4)[C@@H](C2)N(C)CC[C@]315		79		
CO[C@@]12C=C[C@@]3([C@@H]4CN(C(=O)/C=C/c5ccc(C)cc5)C[C@@H]41)[C@H]1Cc4ccc(O)c5c4[C@@]3(CCN1C)[C@H]2O5	70	75	48	
CO[C@@]12CC[C@@]3(C[C@@H]1CNC(=O)/C=C/c1ccccc1Cl)[C@H]1Cc4ccc(O)c5c4[C@@]3(CCN1C)[C@H]2O5	60	40	38	
COc1ccccc1/C=C/C(=O)NC[C@H]1C[C@@]23CC[C@@]1(OC)[C@@H]1Oc4c(OC)ccc5c4[C@@]12CCN(C)[C@@H]3C5	64	16		
